Laboratory results: US20060079453A1, “Hla binding peptides and their uses” (priority 2002, published 2006)
Like-named read-outs stand apart in the source and are kept apart here.

Assays:
Experiment in all cases: biochemical
Assay type in all cases: binding
[1] = molecular target: HLA-B*4002 (Homo sapiens, UniProt P01889, A65T/A93T/A95T/D138N/D201E/D98Y/E176V/E204Q/E69K/K202T/N87E/Q56L/Q94N/R180L/S48T/Y33H/Y91S)
[2] = molecular target: HLA-B*4001 (Homo sapiens, UniProt P01889, A65T/A93T/A95T/D138N/D98Y/E176V/E69K/N87E/Q56L/Q94N/R180L/S121R/S35A/S48T/T167S/V36M/W171L/Y33H/Y91S); details: B*4001
[3] = molecular target: HLA-B*4501 (Homo sapiens, UniProt P01889, A329T/A65T/A93T/A95T/C349S/D138N/D201E/D98Y/E176V/E187L/E204Q/E69K/H137Y/K202T/L119W/N87E/Q56L/Q94N/R155S/R180D/S121R/S35A/S48T/V127L/V306I/V36M/W191S/Y140L/Y33H/Y91S)
[4] = molecular target: HLA-B*4402 (Homo sapiens, UniProt P01889, A223V/A65T/A93T/A95T/D201E/D98Y/E176V/E187L/E204Q/E69K/G107R/H137Y/K202T/L105A/L119I/N104T/N87E/Q56L/Q94N/R106L/R155S/R180D/S101N/S121R/S35A/S48T/T118I/V36M/W191S/Y140D/Y91S); details: B*4402

Compound | IC50 ([1]; B*4002) | IC50 [2] | further results
CC(C)C[C@H](NC(=O)[C@H](Cc1ccc(O)cc1)NC(=O)[C@H](CCC(=O)O)NC(=O)[C@H](CCC(=O)O)NC(=O)[C@H](C)N)C(=O)N[C@H](C(=O)N1CCC[C@H]1C(=O)N[C@@H](CCC(N)=O)C(=O)N[C@@H](CCC(N)=O)C(=O)NCC(=O)O)C(C)C | 24.4 µM | 66.7 µM | –
CC(C)C[C@H](NC(=O)[C@H](CC(N)=O)NC(=O)[C@H](CCC(=O)O)NC(=O)[C@H](C)N)C(=O)N[C@@H](Cc1c[nH]c2ccccc12)C(=O)N[C@@H](CC(N)=O)C(=O)N[C@H](C(=O)N[C@H](C(=O)N[C@@H](Cc1ccc(O)cc1)C(=O)O)C(C)C)[C@@H](C)O | – | – | IC50 [3]: 0.257 µM
CC(C)C[C@H](NC(=O)[C@H](CC(N)=O)NC(=O)[C@H](CCC(=O)O)NC(=O)[C@H](C)N)C(=O)N[C@@H](Cc1c[nH]c2ccccc12)C(=O)N[C@H](C(=O)N[C@@H](Cc1ccccc1)C(=O)N[C@H](C(=O)N[C@@H](Cc1ccc(O)cc1)C(=O)O)C(C)C)C(C)C | – | – | IC50 [3]: 0.237 µM
CC(C)C[C@H](NC(=O)[C@H](CC(N)=O)NC(=O)[C@H](CCC(=O)O)NC(=O)[C@H](C)N)C(=O)N[C@@H](Cc1c[nH]c2ccccc12)C(=O)N[C@H](C(=O)N[C@H](C(=O)N[C@@H](Cc1ccccc1)C(=O)N[C@@H](Cc1ccc(O)cc1)C(=O)O)[C@@H](C)O)C(C)C | – | – | IC50 [3]: 0.347 µM
CC(C)C[C@H](NC(=O)[C@@H](NC(=O)[C@H](CCC(=O)O)NC(=O)[C@H](C)N)C(C)C)C(=O)N[C@@H](Cc1c[nH]c2ccccc12)C(=O)N[C@H](C(=O)N[C@H](C(=O)N[C@H](C(=O)N[C@@H](Cc1ccc(O)cc1)C(=O)O)C(C)C)[C@@H](C)O)C(C)C | – | – | IC50 [3]: 1.24 µM
CC(C)C[C@H](NC(=O)[C@H](Cc1ccc(O)cc1)NC(=O)[C@@H](NC(=O)[C@H](C)NC(=O)[C@H](CC(=O)O)NC(=O)[C@H](CCC(N)=O)NC(=O)[C@@H](NC(=O)[C@H](CCC(=O)O)NC(=O)[C@@H]1CCCN1C(=O)[C@H](CCC(=O)O)NC(=O)[C@@H](N)CS)[C@@H](C)O)[C@@H](C)O)C(=O)O | – | – | IC50 ([3]; B*4501): 62.1 µM
C[C@H](NC(=O)[C@H](Cc1c[nH]cn1)NC(=O)[C@H](Cc1ccc(O)cc1)NC(=O)[C@H](CCC(=O)O)NC(=O)[C@@H](NC(=O)[C@H](CCC(=O)O)NC(=O)[C@@H](N)CC(=O)O)[C@@H](C)O)C(=O)N[C@@H](CC(=O)O)C(=O)NCC(=O)O | > 65.4 µM | > 11.9 µM | IC50 [4]: > 24.4 µM
CC(C)[C@H](NC(=O)[C@H](CCCNC(=N)N)NC(=O)[C@H](Cc1ccccc1)NC(=O)[C@H](CCC(N)=O)NC(=O)CNC(=O)[C@@H](NC(=O)[C@H](C)NC(=O)[C@H](CCC(=O)O)NC(=O)[C@@H](N)CCC(=O)O)[C@@H](C)O)C(=O)N[C@@H](Cc1ccc(O)cc1)C(=O)O | 56 µM | > 33.3 µM | IC50 [4]: 0.029 µM
CC(C)C[C@H](NC(=O)[C@@H]1CCCN1C(=O)[C@H](CO)NC(=O)[C@H](CCCNC(=N)N)NC(=O)[C@@H]1CCCN1C(=O)[C@H](C)NC(=O)[C@H](CCC(=O)O)NC(=O)[C@H](CCC(=O)O)NC(=O)[C@@H](N)CCC(=O)O)C(=O)O | 2.88 µM | – | IC50 [4]: 0.342 µM
CC(C)C[C@H](NC(=O)[C@@H]1CCCN1C(=O)[C@H](CO)NC(=O)[C@H](CCCNC(=N)N)NC(=O)[C@@H]1CCCN1C(=O)[C@H](C)NC(=O)[C@H](CCC(=O)O)NC(=O)[C@H](CCC(=O)O)NC(=O)[C@@H](N)CCC(=O)O)C(=O)N[C@@H](C)C(=O)O | 38.9 µM | 49.5 µM | –
CC(C)C[C@H](NC(=O)CNC(=O)[C@H](CC(C)C)NC(=O)[C@H](C)NC(=O)[C@H](CCC(=O)O)NC(=O)CNC(=O)[C@H](CCCNC(=N)N)NC(=O)[C@H](C)NC(=O)[C@H](CCC(=O)O)NC(=O)[C@H](CC(C)C)NC(=O)CNC(=O)[C@H](CCC(=O)O)NC(=O)[C@@H](N)CCC(=O)O)C(=O)O | 5.14 µM | 1.77 µM | –
C[C@H](NC(=O)[C@@H](NC(=O)[C@H](CCC(N)=O)NC(=O)[C@H](CCC(N)=O)NC(=O)[C@H](CCC(=O)O)NC(=O)[C@@H](N)CCC(=O)O)[C@@H](C)O)C(=O)N[C@@H](CO)C(=O)N[C@@H](CO)C(=O)N[C@@H](CO)C(=O)N[C@@H](CO)C(=O)N[C@H](C(=O)O)[C@@H](C)O | 41.2 µM | 4.04 µM | –
CC[C@H](C)[C@H](NC(=O)[C@H](CCC(N)=O)NC(=O)[C@H](CCCNC(=N)N)NC(=O)[C@H](CC(N)=O)NC(=O)CNC(=O)[C@H](CC(=O)O)NC(=O)[C@@H](NC(=O)[C@H](CCCNC(=N)N)NC(=O)[C@H](CCC(=O)O)NC(=O)CN)C(C)C)C(=O)O | 0.369 µM | – | IC50 [4]: 3.9 µM
CC[C@H](C)[C@H](NC(=O)[C@@H](NC(=O)[C@H](CCC(N)=O)NC(=O)[C@H](CCCNC(=N)N)NC(=O)[C@H](CC(N)=O)NC(=O)CNC(=O)[C@H](CC(=O)O)NC(=O)[C@@H](NC(=O)[C@H](CCCNC(=N)N)NC(=O)[C@H](CCC(=O)O)NC(=O)CN)C(C)C)[C@@H](C)CC)C(=O)O | – | – | IC50 ([3]; B*4501): 27.1 µM
N=C(N)NCCC[C@H](NC(=O)[C@H](CCC(=O)O)NC(=O)[C@@H](N)Cc1c[nH]cn1)C(=O)N[C@@H](CS)C(=O)N[C@@H](CO)C(=O)N[C@@H](CC(=O)O)C(=O)N[C@@H](CO)C(=O)N[C@@H](CC(=O)O)C(=O)NCC(=O)O | 38.6 µM | 2.37 µM | IC50 [4]: 19.3 µM
CC[C@H](C)[C@H](N)C(=O)N[C@@H](CCC(=O)O)C(=O)NCC(=O)N[C@@H](CC(=O)O)C(=O)N[C@@H](CS)C(=O)N[C@@H](C)C(=O)N1CCC[C@H]1C(=O)N[C@@H](CCC(=O)O)C(=O)N[C@@H](CCC(=O)O)C(=O)N[C@@H](CCCCN)C(=O)N[C@H](C(=O)O)[C@@H](C)CC | 32.1 µM | 27.8 µM | –
CC(C)C[C@H](NC(=O)CNC(=O)[C@H](CC(C)C)NC(=O)[C@H](C)NC(=O)[C@H](CCC(=O)O)NC(=O)CNC(=O)[C@H](CCCNC(=N)N)NC(=O)[C@H](C)NC(=O)[C@H](CCC(=O)O)NC(=O)[C@@H](N)CC(C)C)C(=O)O | – | – | IC50 ([3]; B*4501): 0.964 µM
CC(C)C[C@H](NC(=O)[C@H](CC(N)=O)NC(=O)CNC(=O)[C@H](CO)NC(=O)[C@H](CO)NC(=O)[C@H](CC(=O)O)NC(=O)[C@H](CCC(=O)O)NC(=O)[C@@H](N)CC(C)C)C(=O)O | 0.362 µM | – | IC50 [4]: 42.8 µM
CC(C)[C@H](NC(=O)[C@H](CCCNC(=N)N)NC(=O)[C@H](Cc1ccccc1)NC(=O)[C@H](CCC(N)=O)NC(=O)CNC(=O)[C@@H](NC(=O)[C@H](C)NC(=O)[C@H](CCC(=O)O)NC(=O)[C@H](CCC(=O)O)NC(=O)[C@@H](N)CC(N)=O)[C@@H](C)O)C(=O)O | 22.7 µM | 29.1 µM | –
CC(C)C[C@H](NC(=O)[C@@H]1CCCN1C(=O)[C@H](CO)NC(=O)[C@H](CC(C)C)NC(=O)[C@@H](NC(=O)[C@H](CC(N)=O)NC(=O)[C@H](CC(N)=O)NC(=O)[C@H](CCC(=O)O)NC(=O)[C@@H]1CCCN1)C(C)C)C(=O)O | – | – | IC50 ([3]; B*4501): > 27.1 µM
CC(C)C[C@H](NC(=O)[C@@H]1CCCN1C(=O)[C@H](CCC(=O)O)NC(=O)[C@@H](NC(=O)[C@H](CC(C)C)NC(=O)[C@H](CCC(=O)O)NC(=O)[C@@H](NC(=O)[C@H](CCC(=O)O)NC(=O)[C@@H](N)CCC(N)=O)[C@@H](C)O)C(C)C)C(=O)O | 0.085 µM | 0.062 µM | –
CC[C@H](C)[C@H](NC(=O)[C@H](CC(C)C)NC(=O)[C@H](C)NC(=O)[C@H](CC(C)C)NC(=O)CNC(=O)[C@H](CO)NC(=O)CNC(=O)[C@H](CC(C)C)NC(=O)[C@H](CCC(=O)O)NC(=O)[C@@H](N)CCCNC(=N)N)C(=O)O | – | – | IC50 ([3]; B*4501): 0.173 µM
CC(C)C[C@H](NC(=O)[C@H](Cc1ccc(O)cc1)NC(=O)[C@H](CCC(=O)O)NC(=O)[C@@H]1CCCN1C(=O)[C@H](CC(N)=O)NC(=O)[C@H](CCC(=O)O)NC(=O)[C@@H](N)C(C)C)C(=O)N[C@H](C(=O)N1CCC[C@H]1C(=O)N[C@@H](CCC(N)=O)C(=O)NCC(=O)O)[C@@H](C)O | 42.6 µM | 56.4 µM | –
CC(C)C[C@H](NC(=O)[C@@H]1CCCN1C(=O)[C@H](CCC(=O)O)NC(=O)[C@@H](N)C(C)C)C(=O)N[C@H](C(=O)N1CCC[C@H]1C(=O)N[C@@H](CO)C(=O)NCC(=O)N[C@@H](C)C(=O)O)[C@@H](C)O | 0.011 µM | > 9.64 µM | –
CSCC[C@H](NC(=O)[C@H](C)NC(=O)CNC(=O)[C@H](CO)NC(=O)[C@@H]1CCCN1C(=O)[C@@H](NC(=O)[C@H](CC(C)C)NC(=O)[C@@H]1CCCN1C(=O)[C@H](CCC(=O)O)NC(=O)[C@@H](N)C(C)C)[C@@H](C)O)C(=O)O | – | – | IC50 ([3]; B*4501): 20.2 µM
CC(C)C[C@H](NC(=O)[C@H](Cc1ccc(O)cc1)NC(=O)[C@H](CCC(=O)O)NC(=O)[C@@H](N)C(C)C)C(=O)N[C@@H](CC(=O)O)C(=O)N[C@@H](CC(=O)O)C(=O)N[C@@H](CCCNC(=N)N)C(=O)N[C@@H](CC(N)=O)C(=O)N[C@H](C(=O)O)[C@@H](C)O | 35.9 µM | 36.8 µM | –
CC(C)C[C@H](NC(=O)[C@@H]1CCCN1C(=O)[C@H](CCC(=O)O)NC(=O)[C@@H](NC(=O)[C@H](CC(C)C)NC(=O)[C@H](CCC(=O)O)NC(=O)[C@@H](N)[C@@H](C)O)C(C)C)C(=O)O [TELVEPL] | – | – | IC50 ([3]; B*4501): > 148 µM
CC(C)C[C@H](NC(=O)[C@H](C)NC(=O)[C@H](CCCNC(=N)N)NC(=O)[C@@H]1CCCN1C(=O)CNC(=O)[C@H](Cc1c[nH]c2ccccc12)NC(=O)[C@H](CC(C)C)NC(=O)[C@H](Cc1ccccc1)NC(=O)[C@H](CCC(=O)O)NC(=O)[C@@H](N)Cc1ccc(O)cc1)C(=O)O [YEFLWGPRAL] | 0.00097 µM | – | –
CEKCSKPCARVCY | – | – | IC50 ([3]; read-out: B*4501): 1.31 µM
DECVGEGLACHQL | – | – | IC50 ([1]; read-out: B*4002): 3.67 µM
